Earlier results on one molecule are cited in paper PMC10494213 (iScience, 2023).

Each structure is given as a SMILES string.

The conditions of the data set: pH = 7.4; ref http://www.chemspider.com/Chemical; cited from earlier work.

Regarding `NC(=O)N1c2ccccc2C=Cc2ccccc21` [CMZ, Carbamazepine], the “log Kow” value was 2.77.
